Test results reported in publication PMC6050272, “A TRAF3-NIK module differentially regulates DNA vs RNA pathways in innate immune signaling” (Nature Communications, 2018).

Target: the molecule itself
Experiment: semi-native SDS PAGE; whole-cell lysates of HEK 293T cells transfected with HA-STING with or without NIK; native sample buffer without β-mercaptoethanol, not boiled, run on SDS gels; immunoblot

B1: stimulator of interferon genes (STING), epitope-tagged (HA-STING; Myc-STING) (natural protein, UniProt Q86WV6 1-379, looked up)
chain: MPHSSLHPSIPCPRGHGAQKAALVLLSACLVTLWGLGEPPEHTLRYLVLHLASLQLGLLLNGVCSLAEELRHIHSRYRGSYWRTVRACLGCPLRRGALLLLSIYFYYSLPNAVGPPFTWMLALLGLSQALNILLGLKGLAPAEISAVCEKGNFNVAHGLAWSYYIGYLRLILPELQARIRTYNQHYNNLLRGAVSQRLYILLPLDCGVPDNLSMADPNIRFLDKLPQQTGDHAGIKDRVYSNSIYELLENGQRAGTCVLEYATPLQTLFAMSQYSQAGFSREDRLEQAKLFCRTLEDILADAPESQNNCRLIAYQEPADDSSFSLSQEVLRHLRQEEKEEVTVGSLKTSAVPSTSTMSQEPELLISGMEKPLPLRTDFS
notes: STING (TMEM173); the plasmid is 'described elsewhere'; Each copy carries one tag only: HA-STING or Myc-STING; also called TMEM173; MPYS; source: HEK 293T, co-transfected, in lysate
stoichiometry N: 2
